Source: PubChem BioAssay AID624474 (Sanford-Burnham Center for Chemical Genomics, 2012)
Calls of active or inactive are those of the source.

Chains of the proteins cited; added tags and fusions are not shown.
UniProt P34707, whole entry: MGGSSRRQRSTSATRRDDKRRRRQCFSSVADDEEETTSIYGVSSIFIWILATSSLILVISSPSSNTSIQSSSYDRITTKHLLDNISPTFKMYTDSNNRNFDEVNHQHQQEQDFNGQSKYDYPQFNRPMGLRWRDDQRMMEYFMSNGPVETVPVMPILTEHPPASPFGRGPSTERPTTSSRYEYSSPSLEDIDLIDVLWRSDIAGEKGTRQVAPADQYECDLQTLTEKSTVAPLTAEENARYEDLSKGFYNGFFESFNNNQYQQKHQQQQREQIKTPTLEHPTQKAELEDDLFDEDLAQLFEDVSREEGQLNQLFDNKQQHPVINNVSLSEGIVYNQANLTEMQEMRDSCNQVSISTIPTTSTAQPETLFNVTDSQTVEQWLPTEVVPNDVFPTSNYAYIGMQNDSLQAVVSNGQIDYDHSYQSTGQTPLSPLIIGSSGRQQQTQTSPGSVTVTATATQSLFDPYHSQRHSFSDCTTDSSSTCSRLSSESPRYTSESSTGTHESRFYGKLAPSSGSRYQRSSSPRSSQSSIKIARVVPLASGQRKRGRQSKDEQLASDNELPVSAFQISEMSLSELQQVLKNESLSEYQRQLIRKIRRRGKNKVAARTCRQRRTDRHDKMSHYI

Molecular target: Protein skinhead-1 (Caenorhabditis elegans) (UniProt P34707)
Test: SKN-1 inhibitor hit potency, dose response, fluorescence ratio readout (AID 624474)
Conditions: SKN-1 inhibitor fluorescence ratio assay

## O=c1[nH]c2ccccc2n1C1CCN(C(c2cccc3ccccc23)c2nnnn2C2CCCC2)CC1 (stereo unspecified)
  IC50: inactive: > 100 µM
